# Ab-91 heavy chain CDR variants: yeast mating affinities

Data: MIT Lincoln Laboratory AlphaSeq set, Engelhart et al. 2022, doi:10.1038/s41597-022-01779-4, as distributed in FLAb.

Binding partner: SARS-CoV-2 spike HR2 peptide, sequence PDVDLGDISGINAS.

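The starting antibody came from a phage panning campaign against this peptide. Variants in AAYL51 differ from the parent at up to three CDR positions; double and triple changes were sampled at random. AlphaSeq pools MATa yeast showing the antibodies with MATalpha yeast showing the peptide. Mating (16 h, 30 °C) was followed by selection of diploids and sequencing of their barcodes. Scores were corrected for input abundance and mapped to Kd with protein pairs of known affinity run in the same pool. The assay was run in three technical replicates.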

Ab-91 is the parent antibody, in scFv form: VL, then a 15-residue (Gly4Ser)3 linker, then VH. The light chain is unchanged in all variants.
VL: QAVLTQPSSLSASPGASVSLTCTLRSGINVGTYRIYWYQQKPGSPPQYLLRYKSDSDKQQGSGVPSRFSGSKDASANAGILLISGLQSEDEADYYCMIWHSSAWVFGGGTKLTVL
VH: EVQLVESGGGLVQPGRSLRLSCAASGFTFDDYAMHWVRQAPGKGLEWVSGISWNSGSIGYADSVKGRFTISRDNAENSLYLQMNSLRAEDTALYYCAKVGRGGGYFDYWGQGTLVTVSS

Changes read parent residue, position, new residue, counted from the first residue of the VH shown. Every variant below is changed at Y108 of the VH (sequential numbering). The Kd shown is the geometric mean over detected replicates; a lower Kd is a better binder. Where no diploid with the target was found in any replicate, the entry reads "nd": below detection, most likely a poor binder, though not proof of it. Empty control strains, which show no peptide, gave a signal in 21% of pairings with library AAYL51; the median was 34 µM and 95% of these signals were weaker than 1.8 µM. No background was subtracted. Parent in this assay: reference entry 72 nM, copy in this library 7.5 nM.

The variant S55A/V99R/Y108R gave nd (0 of 3 replicates). The variant I58V/D107Y/Y108N showed nd (0 of 3 replicates). For Y32T/N54R/Y108R, the assay gave 180 nM (3 of 3 replicates). The variant N54G/V99F/Y108E showed 250 nM (3 of 3 replicates). The variant W53P/V64F/Y108R showed 1.0 nM (3 of 3 replicates). For Y32G/G50S/Y108R, the assay gave nd (0 of 3 replicates).

With H35W/A61Y/Y108I the result was 4.6 µM (1 of 3 replicates). The variant T28K/Y32P/Y108A showed 540 nM (3 of 3 replicates). The variant N54F/K65F/Y108L showed nd (0 of 3 replicates). The variant F27Y/G100C/Y108S gave 290 µM (2 of 3 replicates). The variant A61W/V64R/Y108D showed 120 µM (1 of 3 replicates). The variant G56I/G102C/Y108R gave 25 µM (3 of 3 replicates).

The variant D30Q/S55Y/Y108C gave nd (0 of 3 replicates). The variant N54S/Y105G/Y108E showed nd (0 of 3 replicates). For H35I/Y108A, the assay gave 3.7 µM (3 of 3 replicates). The variant S52T/S63G/Y108K gave 3.7 µM (3 of 3 replicates). For K65F/G103D/Y108N, the assay gave 14 nM (3 of 3 replicates). With W53G/K65Q/Y108D the result was 5.1 nM (3 of 3 replicates).

The variant G59F/G102K/Y108F gave nd (0 of 3 replicates). For D30G/W53Y/Y108P, the assay gave 270 nM (3 of 3 replicates). For D30H/S52L/Y108I, the assay gave nd (0 of 3 replicates). With K65Y/G102A/Y108C the result was 450 nM (3 of 3 replicates). The variant T28M/Y108P gave 140 nM (3 of 3 replicates). The variant Y32Q/K65Y/Y108W gave nd (0 of 3 replicates).

The variant M34V/V99R/Y108D gave 22 µM (2 of 3 replicates). The variant G56E/S63V/Y108C gave 60 µM (1 of 3 replicates). For Y60G/D62E/Y108D, the assay gave nd (0 of 3 replicates). For D31A/Y32H/Y108P, the assay gave 4.3 µM (3 of 3 replicates). The variant Y32M/S57H/Y108A showed nd (0 of 3 replicates). The variant Y32W/G100V/Y108L gave nd (0 of 3 replicates).

With A33M/F106Q/Y108Q the result was nd (0 of 3 replicates). For A33P/W53N/Y108E, the assay gave 530 nM (3 of 3 replicates). With V64I/G102C/Y108K the result was 4.1 µM (3 of 3 replicates). The variant S57A/K65F/Y108Q showed nd (0 of 3 replicates). The variant M34P/S63R/Y108K showed nd (0 of 3 replicates).

From the list, the first 4 with no signal in any replicate:

Variant S55A/V99R/Y108R showed nd (0 of 3 replicates).
Variant I58V/D107Y/Y108N showed nd (0 of 3 replicates).
Variant Y32G/G50S/Y108R showed nd (0 of 3 replicates).
Variant N54F/K65F/Y108L showed nd (0 of 3 replicates).